Target: hepatitis C virus RNA dependant polymerase (NS5B) (Hepatitis C virus genotype 1b, UniProt P26663)
Assay: biochemical
Conditions: IC50, Table 6

`CC(=O)Nc1nc(-c2c(C3CCCC3)c3ccc(C(=O)NC(C)(C)C(=O)Nc4ccc(/C=C/C(=O)O)cc4)cc3n2C)cs1` [Entry 6008] and `CC(C)C(=O)Nc1nc(-c2c(C3CCCC3)c3ccc(C(=O)NC(C)(C)C(=O)Nc4ccc(/C=C/C(=O)O)cc4)cc3n2C)cs1` [Entry 6027] cannot be ordered by IC50: under 500 nM for the first, under 500 nM for the second.

`CNc1nc(-c2c(C3CCCC3)c3ccc(C(=O)NC(C)(C)C(=O)Nc4ccc(/C=C/C(=O)O)cc4)cc3n2C)cs1` [Entry 6009] and `CCNc1nc(-c2c(C3CCCC3)c3ccc(C(=O)NC(C)(C)C(=O)Nc4ccc(/C=C/C(=O)O)cc4)cc3n2C)cs1` [Entry 6010] cannot be ordered by IC50: under 500 nM for the first, under 500 nM for the second.

Compared with `Cn1c(-c2csc(-c3ccncc3)n2)c(C2CCCC2)c2ccc(C(=O)NC(C)(C)C(=O)Nc3ccc(/C=C/C(=O)O)cc3)cc21` [Entry 6011], `Cn1c(-c2csc(-c3ccccc3)n2)c(C2CCCC2)c2ccc(C(=O)NC(C)(C)C(=O)Nc3ccc(/C=C/C(=O)O)cc3)cc21` [Entry 6012] is higher in IC50: under 500 nM for the first, 500 to 1000 nM for the second.

`CCCNc1nc(-c2c(C3CCCC3)c3ccc(C(=O)NC(C)(C)C(=O)Nc4ccc(/C=C/C(=O)O)cc4)cc3n2C)cs1` [Entry 6014] and `COCCNc1nc(-c2c(C3CCCC3)c3ccc(C(=O)NC(C)(C)C(=O)Nc4ccc(/C=C/C(=O)O)cc4)cc3n2C)cs1` [Entry 6020] cannot be ordered by IC50: under 500 nM for the first, under 500 nM for the second.

`Cn1c(-c2csc(Nc3ccccn3)n2)c(C2CCCC2)c2ccc(C(=O)NC(C)(C)C(=O)Nc3ccc(/C=C/C(=O)O)cc3)cc21` [Entry 6015] and `Cn1c(-c2csc(Nc3ccncc3)n2)c(C2CCCC2)c2ccc(C(=O)NC(C)(C)C(=O)Nc3ccc(/C=C/C(=O)O)cc3)cc21` [Entry 6022] fall in the same range of IC50: 500 to 1000 nM for the first, 500 to 1000 nM for the second.

`Cn1c(-c2csc(N3CCCCC3)n2)c(C2CCCC2)c2ccc(C(=O)NC(C)(C)C(=O)Nc3ccc(/C=C/C(=O)O)cc3)cc21` [Entry 6016] and `Cn1c(-c2csc(NCCN3CCCCC3)n2)c(C2CCCC2)c2ccc(C(=O)NC(C)(C)C(=O)Nc3ccc(/C=C/C(=O)O)cc3)cc21` [Entry 6023] cannot be ordered by IC50: under 500 nM for the first, under 500 nM for the second.

Compared with `CC(C)Nc1nc(-c2c(C3CCCC3)c3ccc(C(=O)NC(C)(C)C(=O)Nc4ccc(/C=C/C(=O)O)cc4)cc3n2C)cs1` [Entry 6017], `CCC(CC)Nc1nc(-c2c(C3CCCC3)c3ccc(C(=O)NC(C)(C)C(=O)Nc4ccc(/C=C/C(=O)O)cc4)cc3n2C)cs1` [Entry 6031] is higher in IC50: under 500 nM for the first, 500 to 1000 nM for the second.

First: Cc1nc(-c2nc(-c3c(C4CCCC4)c4ccc(C(=O)NC(C)(C)C(=O)Nc5ccc(/C=C/C(=O)O)cc5)cc4n3C)cs2)cs1 [Entry 6018]
Second: Cn1c(-c2csc(-c3cccs3)n2)c(C2CCCC2)c2ccc(C(=O)NC(C)(C)C(=O)Nc3ccc(/C=C/C(=O)O)cc3)cc21 [Entry 6019]
The IC50 of the first is lower: under 500 nM for the first, 500 to 1000 nM for the second. The first is the more potent here.

First: Cn1c(-c2csc(NCC3CCCO3)n2)c(C2CCCC2)c2ccc(C(=O)NC(C)(C)C(=O)Nc3ccc(/C=C/C(=O)O)cc3)cc21 (stereo not shown) [Entry 6021]
Second: Cn1c(-c2csc(NC3CCCC3)n2)c(C2CCCC2)c2ccc(C(=O)NC(C)(C)C(=O)Nc3ccc(/C=C/C(=O)O)cc3)cc21 [Entry 6033]
The IC50 of the first is lower: under 500 nM for the first, 500 to 1000 nM for the second. The first is the more potent here.

`Cn1c(-c2csc(CS(C)(=O)=O)n2)c(C2CCCC2)c2ccc(C(=O)NC(C)(C)C(=O)Nc3ccc(/C=C/C(=O)O)cc3)cc21` [Entry 6024] and `Cn1c(-c2csc(CO)n2)c(C2CCCC2)c2ccc(C(=O)NC(C)(C)C(=O)Nc3ccc(/C=C/C(=O)O)cc3)cc21` [Entry 6026] cannot be ordered by IC50: under 500 nM for the first, under 500 nM for the second.

`Cn1c(-c2csc(NCCN3CCOCC3)n2)c(C2CCCC2)c2ccc(C(=O)NC(C)(C)C(=O)Nc3ccc(/C=C/C(=O)O)cc3)cc21` [Entry 6025] and `CN(C)CCNc1nc(-c2c(C3CCCC3)c3ccc(C(=O)NC(C)(C)C(=O)Nc4ccc(/C=C/C(=O)O)cc4)cc3n2C)cs1` [Entry 6035] cannot be ordered by IC50: under 500 nM for the first, under 500 nM for the second.

`CC(C)OC(=O)Nc1nc(-c2c(C3CCCC3)c3ccc(C(=O)NC(C)(C)C(=O)Nc4ccc(/C=C/C(=O)O)cc4)cc3n2C)cs1` [Entry 6028] and `Cn1c(-c2csc(NC(=O)C(C)(C)C)n2)c(C2CCCC2)c2ccc(C(=O)NC(C)(C)C(=O)Nc3ccc(/C=C/C(=O)O)cc3)cc21` [Entry 6029] cannot be ordered by IC50: under 500 nM for the first, under 500 nM for the second.

Compared with `Cn1c(-c2csc(NC(=O)OC3CCCC3)n2)c(C2CCCC2)c2ccc(C(=O)NC(C)(C)C(=O)Nc3ccc(/C=C/C(=O)O)cc3)cc21` [Entry 6030], `CN(C)Nc1nc(-c2c(C3CCCC3)c3ccc(C(=O)NC(C)(C)C(=O)Nc4ccc(/C=C/C(=O)O)cc4)cc3n2C)cs1` [Entry 6032] is lower in IC50: 500 to 1000 nM for the first, under 500 nM for the second. The second is the more potent here.

`CC(C)N(C)c1nc(-c2c(C3CCCC3)c3ccc(C(=O)NC(C)(C)C(=O)Nc4ccc(/C=C/C(=O)O)cc4)cc3n2C)cs1` [Entry 6034] and `C=Cc1c(C2CCCC2)c2ccc(C(=O)NC(C)(C)C(=O)Nc3ccc(/C=C/C(=O)O)cc3)cc2n1C` [Entry 6046] cannot be ordered by IC50: under 500 nM for the first, under 500 nM for the second.

`Cn1c(-c2ccccn2)c(C2CCCC2)c2ccc(C(=O)NC3(C(=O)Nc4ccc(/C=C/C(=O)O)cc4)CC3)cc21` [Entry 6036] and `Cn1c(-c2ccccn2)c(C2CCCC2)c2ccc(C(=O)NC3(C(=O)Nc4ccc(/C=C/C(=O)O)cc4)CCC3)cc21` [Entry 6064] cannot be ordered by IC50: under 500 nM for the first, under 500 nM for the second.

`Cn1c(-c2cccc(N)n2)c(C2CCCC2)c2ccc(C(=O)NC3(C(=O)Nc4ccc(/C=C/C(=O)O)cc4)CC3)cc21` [Entry 6037] and `CN1CCC(NC(=O)c2ccc3c(C4CCCC4)c(-c4cccc(N)n4)n(C)c3c2)(C(=O)Nc2ccc(/C=C/C(=O)O)cc2)CC1` [Entry 6059] cannot be ordered by IC50: under 500 nM for the first, under 500 nM for the second.

`Cn1c(-c2ccsc2)c(C2CCCC2)c2ccc(C(=O)NC3(C(=O)Nc4ccc(/C=C/C(=O)O)cc4)CCC3)cc21` [Entry 6040] and `Cn1c(-c2ccsc2)c(C2CCCC2)c2ccc(C(=O)NC3(C(=O)Nc4ccc(/C=C/C(=O)O)cc4)CCCC3)cc21` [Entry 6055] cannot be ordered by IC50: under 500 nM for the first, under 500 nM for the second.

`Cn1c(-c2ccc(C(F)(F)F)cn2)c(C2CCCC2)c2ccc(C(=O)NC3(C(=O)Nc4ccc(/C=C/C(=O)O)cc4)CCC3)cc21` [Entry 6041] and `Cn1c(-c2ccc(C(F)(F)F)cn2)c(C2CCCC2)c2ccc(C(=O)NC3(C(=O)Nc4ccc(/C=C/C(=O)O)cc4)CCCC3)cc21` [Entry 6042] cannot be ordered by IC50: under 500 nM for the first, under 500 nM for the second.

`COc1cccc(-c2c(C3CCCC3)c3ccc(C(=O)NC4(C(=O)Nc5ccc(/C=C/C(=O)O)cc5)CCC4)cc3n2C)n1` [Entry 6043] and `COc1cccc(-c2c(C3CCCC3)c3ccc(C(=O)NC4(C(=O)Nc5ccc(/C=C/C(=O)O)cc5)CCCC4)cc3n2C)n1` [Entry 6044] cannot be ordered by IC50: under 500 nM for the first, under 500 nM for the second.

First: Cn1c(-c2ccc(Cl)cc2)c(C2CCCC2)c2ccc(C(=O)NC3(C(=O)Nc4ccc(/C=C/C(=O)O)cc4)CCC3)cc21 [Entry 6045]
Second: Cn1c(-c2ccc(N)cc2)c(C2CCCC2)c2ccc(C(=O)NC3(C(=O)Nc4ccc(/C=C/C(=O)O)cc4)CCCC3)cc21 [Entry 6053]
The IC50 of the first is higher: 500 to 1000 nM for the first, under 500 nM for the second. The second is the more potent here.

`CN1CCC(NC(=O)c2ccc3c(C4CCCC4)c(-c4ccc(Cl)cn4)n(C)c3c2)(C(=O)Nc2ccc(/C=C/C(=O)O)cc2)CC1` [Entry 6050] and `Cc1cccc(-c2c(C3CCCC3)c3ccc(C(=O)NC4(C(=O)Nc5ccc(/C=C/C(=O)O)cc5)CCN(C)CC4)cc3n2C)n1` [Entry 6058] cannot be ordered by IC50: under 500 nM for the first, under 500 nM for the second.

`Cn1c(-c2nccs2)c(C2CCCC2)c2ccc(C(=O)NC3(C(=O)Nc4ccc(/C=C/C(=O)O)cc4)CCCC3)cc21` [Entry 6051] and `Cn1c(-c2cnccn2)c(C2CCCC2)c2ccc(C(=O)NC3(C(=O)Nc4ccc(/C=C/C(=O)O)cc4)CCCC3)cc21` [Entry 6063] cannot be ordered by IC50: under 500 nM for the first, under 500 nM for the second.

`Cn1c(-c2cccc(N)c2)c(C2CCCC2)c2ccc(C(=O)NC3(C(=O)Nc4ccc(/C=C/C(=O)O)cc4)CCCC3)cc21` [Entry 6052] and `Cc1cccc(-c2c(C3CCCC3)c3ccc(C(=O)NC4(C(=O)Nc5ccc(/C=C/C(=O)O)cc5)CCCC4)cc3n2C)n1` [Entry 6057] cannot be ordered by IC50: under 500 nM for the first, under 500 nM for the second.

`CN1CCC(NC(=O)c2ccc3c(C4CCCC4)c(-c4ccc(N)cc4)n(C)c3c2)(C(=O)Nc2ccc(/C=C/C(=O)O)cc2)CC1` [Entry 6054] and `Cc1ccc(-c2c(C3CCCC3)c3ccc(C(=O)NC4(C(=O)Nc5ccc(/C=C/C(=O)O)cc5)CCN(C)CC4)cc3n2C)cn1` [Entry 6062] cannot be ordered by IC50: under 500 nM for the first, under 500 nM for the second.

`CN1CCC(NC(=O)c2ccc3c(C4CCCC4)c(-c4ccsc4)n(C)c3c2)(C(=O)Nc2ccc(/C=C/C(=O)O)cc2)CC1` [Entry 6056] and `CN1CCC(NC(=O)c2ccc3c(C4CCCC4)c(-c4cnccn4)n(C)c3c2)(C(=O)Nc2ccc(/C=C/C(=O)O)cc2)CC1` [Entry 6065] cannot be ordered by IC50: under 500 nM for the first, under 500 nM for the second.

`Cc1ccc(-c2c(C3CCCC3)c3ccc(C(=O)NC4(C(=O)Nc5ccc(/C=C/C(=O)O)cc5)CCCC4)cc3n2C)nc1` [Entry 6060] and `Cc1ccc(-c2c(C3CCCC3)c3ccc(C(=O)NC4(C(=O)Nc5ccc(/C=C/C(=O)O)cc5)CCCC4)cc3n2C)cn1` [Entry 6061] cannot be ordered by IC50: under 500 nM for the first, under 500 nM for the second.

First: CCc1ccnc(-c2c(C3CCCC3)c3ccc(C(=O)NC4(C(=O)Nc5ccc(/C=C/C(=O)O)cc5)CCCC4)cc3n2C)c1 [Entry 6067]
Second: CCc1ccnc(-c2c(C3CCCC3)c3ccc(C(=O)NC4(C(=O)Nc5ccc(/C=C/C(=O)O)cc5)CCN(C)CC4)cc3n2C)c1 [Entry 6068]
The IC50 of the first is higher: 1000 to 10000 nM for the first, under 500 nM for the second. The second is the more potent here.

`Cc1cccc(-c2c(C3CCCC3)c3ccc(C(=O)NC4(C(=O)Nc5ccc(/C=C/C(=O)O)cc5)CCC4)cc3n2C)n1` [Entry 6069] and `Cc1nc(-c2c(C3CCCC3)c3ccc(C(=O)NC4(C(=O)Nc5ccc(/C=C/C(=O)O)cc5)CCC4)cc3n2C)cs1` [Entry 6075] cannot be ordered by IC50: under 500 nM for the first, under 500 nM for the second.

`Cn1c(-c2cscn2)c(C2CCCC2)c2ccc(C(=O)NC3(C(=O)Nc4ccc(/C=C/C(=O)O)cc4)CCC3)cc21` [Entry 6070] and `Cn1c(-c2csc(N)n2)c(C2CCCC2)c2ccc(C(=O)NC3(C(=O)Nc4ccc(/C=C/C(=O)O)cc4)CCC3)cc21` [Entry 6074] cannot be ordered by IC50: under 500 nM for the first, under 500 nM for the second.

`CC(=O)Nc1nc(-c2c(C3CCCC3)c3ccc(C(=O)NC4(C(=O)Nc5ccc(/C=C/C(=O)O)cc5)CCC4)cc3n2C)cs1` [Entry 6071] and `CNc1nc(-c2c(C3CCCC3)c3ccc(C(=O)NC4(C(=O)Nc5ccc(/C=C/C(=O)O)cc5)CCC4)cc3n2C)cs1` [Entry 6072] cannot be ordered by IC50: under 500 nM for the first, under 500 nM for the second.

In the case of `CCNc1nc(-c2c(C3CCCC3)c3ccc(C(=O)NC4(C(=O)Nc5ccc(/C=C/C(=O)O)cc5)CCC4)cc3n2C)cs1` [Entry 6073], the IC50 is reported as under 500 nM.

— patent publication US20060160798A1, “Viral polymerase inhibitors” (Boehringer Ingelheim (Canada) Ltd., priority 2001, published 2006)
